# pIC50: −log10 of the molar value.
# Chains of the proteins cited; added tags and fusions are not shown.
# UniProt Q8IYL9, whole entry: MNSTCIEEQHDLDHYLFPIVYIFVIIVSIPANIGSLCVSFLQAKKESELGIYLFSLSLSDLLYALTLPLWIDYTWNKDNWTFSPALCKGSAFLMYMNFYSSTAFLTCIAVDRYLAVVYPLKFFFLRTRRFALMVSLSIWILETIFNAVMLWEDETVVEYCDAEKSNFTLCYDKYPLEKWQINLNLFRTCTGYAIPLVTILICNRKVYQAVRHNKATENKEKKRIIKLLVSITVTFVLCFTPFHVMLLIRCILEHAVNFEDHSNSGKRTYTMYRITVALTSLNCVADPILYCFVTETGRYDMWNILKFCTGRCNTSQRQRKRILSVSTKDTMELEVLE
# Biological target: human recombinant GPR65 (Homo sapiens, UniProt Q8IYL9)
# Assay: Human GPR65 cAMP HTRF antagonist assay
# Format: cell-based
# Settings: read-out: hGPR65 IC50 (activity class); 1321N1-hrGPR65 cells, assay pH 7.2, cAMP HTRF
# From the text: In one preferred embodiment, the compound prevents the increase in cytoplasmic cAMP levels expected following GPR65 activation at acidic pH. This prevention of cAMP accumulation in turn prevents downstream signalling through ICER, as described above. The “Human GPR65 cyclic adenosine monophosphate (cAMP) Homogeneous Time Resolved Fluorescence (HTRF) antagonist assay”, or simply “cAMP assay”, as described in the accompanying examples, can be used to measure the potency of GPR65 modulators, which is expressed as the concentration of compound required to reduce the increase in cAMP concentration upon GPR65 activation by 50% (i.e. an IC50).
# Human GPR65 Cyclic Adenosine Monophosphate (cAMP) Homogeneous Time Resolved Fluorescence (HTRF) Antagonist Assay Procedure
# IC50 data was obtained by the following procedure:
# 1321N1 human astrocytoma cells stably expressing human recombinant GPR65 (1321N1-hrGPR65 cells, EuroscreenFast) were cultured according to the vendor's instructions. […]
# Accumulation of cAMP was detected by cAMP HTRF kit (Cisbio). d2-labeled cAMP and cryptate-labeled anti-cAMP antibody in Lysis and Detection Buffer (Cisbio) were added to assay plates, and the plates were incubated at room temperature for 1 h. […] Acceptor and donor emission signals were measured at 665 nm and 620 nm, respectively, and HTRF ratios were calculated as signal665 nm/signal620 nm×104. […]
smiles,measurement,value
C[C@]12CC[C@H](c3ccncc3C1)N2C(=O)Nc1ccc(C(F)(F)F)c(Cl)c1,pIC50,5.30 to 6.30

# Reference: US20230373989A1, “N-PHENYLAMINOCARBONYL PYRIDINO-, PYRIMIDINO AND BENZO-TROPANES AS MODULATORS OF GPR65” (PATHIOS THERAPEUTICS LIMITED, priority 2020, published 2023)
